We go through one substance from paper doi:10.1101/2025.07.27.667015v3 (biorxiv, 2025).

One may read the Km as the concentration of substrate that gives half-maximal velocity. What is called kcat is the number of substrate molecules converted per active site and unit of time at saturation.

The subject of this series is Cc1ncc(COP(=O)(O)O)c(C=O)c1O. Kind of series: purified protein. Conditions: L-Met 20 mM, 50 mM Tris-HCl pH 8.0, 20 °C, varied: cofactor.

Turning to “yMGL-ΔCTD (Yarrowia lipolytica CLIB122; DEL253-380)”, the Km was found to be 1.65 ± 0.00 µM and the catalytic constant (kcat) worked out at 0.01 ± 0.00 s⁻¹.
